# Apparent affinities of Ab-14 variants for a coronavirus HR2 peptide

Binding partner: SARS-CoV-2 spike HR2 peptide, sequence PDVDLGDISGINAS.

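Phage display of a naive human antibody library on the peptide gave the parent. The variants were designed computationally from a first round of random CDR variants and then made and measured. Their group label is 14H_En_Gen (En: ensemble of fine-tuned language models; Gen: genetic algorithm). The assay is AlphaSeq: two haploid yeast populations carry antibody and antigen on their surface. After mating in shaken culture at 30 °C for 16 h, diploids were selected and their barcode pairs sequenced. Read counts were normalised to the haploid input and turned into Kd by a linear fit to BCL2-family pairs of known affinity, for each replicate. Mating was done six times.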

The variants keep the light chain, the linker and the frameworks of Ab-14 (scFv order VH, a (GGGGS)3 linker, VL).
VH: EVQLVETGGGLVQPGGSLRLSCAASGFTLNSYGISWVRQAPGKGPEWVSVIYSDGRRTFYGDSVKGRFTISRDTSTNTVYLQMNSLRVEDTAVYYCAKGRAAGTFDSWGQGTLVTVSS
VL: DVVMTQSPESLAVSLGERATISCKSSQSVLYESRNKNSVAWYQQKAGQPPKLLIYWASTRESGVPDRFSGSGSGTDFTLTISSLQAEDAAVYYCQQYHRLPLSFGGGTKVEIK

The whole VH of each variant is written out. Scale: log10 of Kd in nM, estimated from mating counts; low values are strong binders. Where no diploid with the target was found in that replicate, the entry reads "ND": below detection, most likely a poor binder, though not proof of it.

VH | log10 Kd, replicates | control signals
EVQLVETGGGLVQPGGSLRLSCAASGFDLDEYGISWVRQAPGKGPEWVSVIYADGVRKAYSDSVKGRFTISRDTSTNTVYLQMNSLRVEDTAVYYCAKGNVAGTFDVWGQGTLVTVSS | -1.00 / -0.71 / -0.93 / -0.94 / -1.02 / -0.72 | 0/18
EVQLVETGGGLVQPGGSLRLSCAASGFDLDEYGISWVRQAPGKGPEWVSVIYADGKRTYYADSVKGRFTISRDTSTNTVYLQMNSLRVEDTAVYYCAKGNVAGTFDIWGQGTLVTVSS | -0.95 / -0.45 / -1.34 / -1.09 / -1.64 / -0.85 | 0/18
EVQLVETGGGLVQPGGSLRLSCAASGFDLNEYGISWVRQAPGKGPEWVSVIYADGMRTAYVDSVKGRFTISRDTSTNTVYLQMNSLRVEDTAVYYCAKGETAGTFDQWGQGTLVTVSS | -0.88 / -0.86 / -0.70 / -1.02 / -0.91 / -0.50 | 0/18
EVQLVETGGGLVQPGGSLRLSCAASGFDLNEYGISWVRQAPGKGPEWVSVIYADGMRTYYADDVKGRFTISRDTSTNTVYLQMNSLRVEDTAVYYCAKGTNAGTFDVWGQGTLVTVSS | -0.49 / -0.58 / -0.80 / -0.79 / -0.95 / -0.56 | 1/18 (1.95)
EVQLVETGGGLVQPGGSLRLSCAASGFDLNEYGISWVRQAPGKGPEWVSVIYADGMRTYYSDSVKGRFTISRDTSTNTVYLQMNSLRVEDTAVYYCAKGNVAGTFDVWGQGTLVTVSS | -0.54 / -0.72 / -0.92 / -0.97 / -0.73 / -0.57 | 0/18
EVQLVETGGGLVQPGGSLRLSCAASGFDLNEYGISWVRQAPGKGPEWVSVIYADGMRTYYADSVKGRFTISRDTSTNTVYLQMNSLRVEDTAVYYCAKGENAGTFDMWGQGTLVTVSS | -0.44 / -0.46 / -0.01 / -0.64 / -0.03 / -0.12 | 1/18 (1.04)
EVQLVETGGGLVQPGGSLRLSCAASGFNLDEYGISWVRQAPGKGPEWVSVIYADGMRTAYTDSVKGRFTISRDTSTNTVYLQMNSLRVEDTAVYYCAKGEVAGTFDVWGQGTLVTVSS | ND / ND / ND / ND / ND / ND | 1/18 (0.67)
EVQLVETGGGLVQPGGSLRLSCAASGFDLNEYGISWVRQAPGKGPEWVSVIYADGKRTAYANSVKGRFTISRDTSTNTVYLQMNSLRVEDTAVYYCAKGENAGTFDVWGQGTLVTVSS | ND / ND / ND / ND / ND / ND | 0/18
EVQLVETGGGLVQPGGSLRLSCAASGFDLDEYGISWVRQAPGKGPEWVSVIYADGRRTAYSDSVKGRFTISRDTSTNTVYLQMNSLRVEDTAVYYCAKGNNAGTFDIWGQGTLVTVSS | -0.24 / 0.70 / -0.67 / -0.33 / 0.65 / 0.56 | 0/18
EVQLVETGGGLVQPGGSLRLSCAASGFDLNEYGISWVRQAPGKGPEWVSVIYADGMRTAYTDSVKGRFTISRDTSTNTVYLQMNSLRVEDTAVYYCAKGEVAGTFDVWGQGTLVTVSS | -0.54 / -0.51 / -0.37 / -0.77 / -0.49 / -0.40 | 0/18
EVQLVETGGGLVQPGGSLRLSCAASGFDLNEYGISWVRQAPGKGPEWVSVIYADGMRTAYADSVKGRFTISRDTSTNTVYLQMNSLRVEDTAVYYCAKGNVAGTFVLWGQGTLVTVSS | 0.56 / -0.17 / -0.58 / -0.60 / 0.30 / 0.18 | 0/18
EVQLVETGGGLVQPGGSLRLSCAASGFDLNEYGISWVRQAPGKGPEWVSVIYADGRRTAYIDSVKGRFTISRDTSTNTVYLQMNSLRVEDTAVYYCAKGNVAGTFDIWGQGTLVTVSS | -0.63 / -1.21 / -0.90 / -0.97 / -0.76 / -0.52 | 1/18 (0.53)
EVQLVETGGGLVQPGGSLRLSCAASGFDLDEYGISWVRQAPGKGPEWVSVIYADGKRTAYSDSVKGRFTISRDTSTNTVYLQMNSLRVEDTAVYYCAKGTNAGTFDVWGQGTLVTVSS | -0.42 / -0.71 / -0.65 / -0.84 / -0.79 / -0.91 | 0/18
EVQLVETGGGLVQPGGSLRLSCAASGFDLNEYGISWVRQAPGKGPEWVSVIYADGVRTAYVDSVKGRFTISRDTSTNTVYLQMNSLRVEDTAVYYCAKGENAGTFDMWGQGTLVTVSS | 0.33 / 0.73 / 0.10 / 0.33 / 0.45 / 0.04 | 0/18
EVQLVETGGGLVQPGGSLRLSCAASGFDLNEYGISWVRQAPGKGPEWVSVIYADGKRTAYADSVKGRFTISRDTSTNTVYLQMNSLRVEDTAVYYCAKGVNAGTFDVWGQGTLVTVSS | 0.60 / 1.16 / 1.05 / -0.49 / 0.98 / 1.30 | 1/18 (0.86)
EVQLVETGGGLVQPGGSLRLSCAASGFDLDEYGISWVRQAPGKGPEWVSVIYADGVRTAYADSVKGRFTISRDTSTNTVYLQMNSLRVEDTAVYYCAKGEVAGTFDMWGQGTLVTVSS | -0.19 / -0.33 / 0.38 / -0.01 / 0.45 / 0.16 | 0/18
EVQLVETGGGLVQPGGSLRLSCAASGFDLNEYGISWVRQAPGKGPEWVSVIYADGQRTAYANDVKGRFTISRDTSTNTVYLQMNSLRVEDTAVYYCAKGEVAGTFDVWGQGTLVTVSS | -0.64 / -0.54 / -0.36 / -0.62 / -0.29 / -0.66 | 0/18
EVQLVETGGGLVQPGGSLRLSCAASGFDLEDYGISWVRQAPGKGPEWVSVIYADGMRTAYTDSVKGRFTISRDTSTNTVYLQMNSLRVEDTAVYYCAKGEVAGTFDVWGQGTLVTVSS | -0.57 / 0.11 / -0.42 / -0.40 / 0.15 / -0.24 | 0/18

Top 2 of the variants detected in all replicates, tightest first:

VH | log10 Kd, replicates | control signals
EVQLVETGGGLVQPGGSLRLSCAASGFDLDEYGISWVRQAPGKGPEWVSVIYADGKRTYYADSVKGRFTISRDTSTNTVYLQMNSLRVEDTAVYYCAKGNVAGTFDIWGQGTLVTVSS | -0.95 / -0.45 / -1.34 / -1.09 / -1.64 / -0.85 | 0/18
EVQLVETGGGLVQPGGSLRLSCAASGFDLDEYGISWVRQAPGKGPEWVSVIYADGVRKAYSDSVKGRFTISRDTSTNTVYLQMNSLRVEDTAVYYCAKGNVAGTFDVWGQGTLVTVSS | -1.00 / -0.71 / -0.93 / -0.94 / -1.02 / -0.72 | 0/18

Background: pairings of all heavy chain designs with three empty control strains gave a value in 1% of cases (median 2.08, 5th percentile 0.84). Values in that range, when seen in few replicates, are hard to tell from nonspecific mating. For each scFv, signals with the empty controls are counted beside the result, with their mean in brackets. The authors averaged sequences with at least three values out of six and counted those with two or fewer as poor binders. Of ten entries with the parent sequence, four were seen in most replicates (averages 0.34 to 2.37), three in one and three in none, so single entries are noisy. A sequence measured in both rounds can read differently, since the two assays cover different ranges.

Values reported by Li et al. 2023, doi:10.1038/s41467-023-39022-2 (FLAb copy).